Test results taken from ChEMBL document CHEMBL3997796 (J Med Chem, 2017).
Calls of active or inactive are those of the source. The rule behind the calls is not given here.

By UniProt entry, the sequences of proteins in these tests, tags left out. Where a name states a change or a piece, a line headed by the entry shows the natural chain unless it says otherwise.
UniProt Q92633: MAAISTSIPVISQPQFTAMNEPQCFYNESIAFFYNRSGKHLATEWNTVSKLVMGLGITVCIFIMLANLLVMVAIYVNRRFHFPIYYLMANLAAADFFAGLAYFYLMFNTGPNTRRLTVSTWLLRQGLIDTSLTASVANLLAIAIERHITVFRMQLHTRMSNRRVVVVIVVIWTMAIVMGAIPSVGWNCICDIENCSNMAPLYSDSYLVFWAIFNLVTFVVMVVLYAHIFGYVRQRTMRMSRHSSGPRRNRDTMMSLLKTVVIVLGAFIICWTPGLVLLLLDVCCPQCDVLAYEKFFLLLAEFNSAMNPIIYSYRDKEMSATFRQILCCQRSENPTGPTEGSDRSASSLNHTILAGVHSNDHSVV

Biological target: Lysophosphatidic acid receptor 1 (Homo sapiens, UniProt Q92633)
Experiment: Antagonist activity at LPA1 receptor (unknown origin) expressed in rat RH7777 cells assessed as inhibition of LPA-induced intracellular calcium level up to 100 uM measured every 3.42 secs for 70 secs by Fura-2-AM dye based fluorescence assay relative to LPA
Type: functional, cell-based

Compound | Emax
O=C(Nc1cc(F)c(F)c(F)c1Br)c1cc(S(=O)(=O)N2CCOCC2)c(Cl)cc1Cl | inactive
O=S(=O)(c1cc(C(=S)Nc2cc(F)c(F)c(F)c2)c(Cl)cc1Cl)N1CCOCC1 | inactive
